The results in this text go back to patent US9315587B2.

Sequences of proteins named here, by UniProt entry; tags and fusion partners are left off. Residues count along the entry.
UniProt P56817, 46-457 limits assumed: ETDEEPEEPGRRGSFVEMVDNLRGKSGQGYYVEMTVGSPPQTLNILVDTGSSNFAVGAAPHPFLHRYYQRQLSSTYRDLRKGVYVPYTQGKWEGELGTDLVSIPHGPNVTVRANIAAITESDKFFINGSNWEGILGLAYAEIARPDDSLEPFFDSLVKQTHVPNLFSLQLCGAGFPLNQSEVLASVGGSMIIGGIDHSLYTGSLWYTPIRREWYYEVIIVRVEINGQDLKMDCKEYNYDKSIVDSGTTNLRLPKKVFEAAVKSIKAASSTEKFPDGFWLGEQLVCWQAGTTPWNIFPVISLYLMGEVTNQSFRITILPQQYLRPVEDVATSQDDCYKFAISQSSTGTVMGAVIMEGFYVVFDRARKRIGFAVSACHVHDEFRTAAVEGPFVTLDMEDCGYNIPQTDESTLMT

For the assay, the target named is recombinant human BACE-1 (Homo sapiens, UniProt P56817). Kind of assay: BACE-1 inhibition by in vitro FRET peptide cleavage assay. The following applies: human recombinant BACE-1, FRET peptide, pH 4.5, 1 h, 25° C. How it is done:
The ability of compounds of the invention to inhibit BACE-1 cleavage of APP is assessed using a fluorescent resonance energy transfer (FRET) peptide cleavage assay employing the FRET peptide HiLyte 488-Glu-Val-Asn-Leu-Asp-Ala-Glu-Phe-Lys(QXL520)-OH (Anaspec, Inc., CA, USA; Cat no. 60604-01). When intact, the amino terminal fluorophore is quenched, but upon enzymatic cleavage the fluorophore is released from quencher and fluoresces (520 nm). Assays are performed in triplicate in 96 well black plates (20 mM sodium acetate, 0.1% Triton-X-100, pH 4.5; 2.2 ng peptide per well and 25 ng/well of recombinant human BACE-1 (R & D Systems Cat no. 931-AS). The appropriate controls for enzyme activity (substrate plus enzyme, and substrate only) are employed and plates are incubated (1 h, 25° C., with activity stopped with 2.5 M sodium acetate). Compounds of the invention are added in the concentration range from 100-0.0001 μg/mL. Fluorescence 480ex/520em is measured on a Polarstar plate reader (BMG LabTechnologies, UK) and data are analysed by plotting log10 concentration of compound against percent inhibition and fitting a logistic dose response sigmoidal curve using OriginPro 8 (OriginLabs, Mass, USA).

Take `COc1ccc(O[C@@H]2O[C@H](C(=O)O)[C@@H](O[C@H]3O[C@H](COS(=O)(=O)O)[C@@H](O[C@@H]4O[C@H](C(=O)O)[C@@H](O[C@H]5O[C@H](COS(=O)(=O)O)[C@@H](O[C@@H]6O[C@H](C(=O)O)[C@@H](O[C@H]7O[C@H](COS(=O)(=O)O)[C@@H](O[C@@H]8O[C@H](C(=O)O)[C@@H](O[C@H]9O[C@H](COS(=O)(=O)O)[C@@H](O[C@@H]%10O[C@H](C(=O)O)[C@@H](O[C@H]%11O[C@H](COS(=O)(=O)O)[C@@H](O)[C@H](O)[C@H]%11NC(C)=O)[C@H](O)[C@H]%10O)[C@H](O)[C@H]9NC(C)=O)[C@H](O)[C@H]8O)[C@H](O)[C@H]7NC(C)=O)[C@H](O)[C@H]6O)[C@H](O)[C@H]5NC(C)=O)[C@H](O)[C@H]4O)[C@H](O)[C@H]3NC(C)=O)[C@H](O)[C@H]2O)cc1`: the IC50 (tested form: Na salt) turned out to be 0.66 mg/L.

As to `COc1ccc(O[C@@H]2O[C@@H](C(=O)O)[C@@H](O[C@H]3O[C@H](COS(=O)(=O)O)[C@@H](O[C@@H]4O[C@@H](C(=O)O)[C@@H](O[C@H]5O[C@H](COS(=O)(=O)O)[C@@H](O[C@@H]6O[C@@H](C(=O)O)[C@@H](O[C@H]7O[C@H](COS(=O)(=O)O)[C@@H](O[C@@H]8O[C@@H](C(=O)O)[C@@H](O[C@H]9O[C@H](COS(=O)(=O)O)[C@@H](O[C@@H]%10O[C@@H](C(=O)O)[C@@H](O[C@H]%11O[C@H](COS(=O)(=O)O)[C@@H](O)[C@H](O)[C@H]%11NC(C)=O)[C@H](O)[C@H]%10O)[C@H](O)[C@H]9NC(C)=O)[C@H](O)[C@H]8O)[C@H](O)[C@H]7NC(C)=O)[C@H](O)[C@H]6O)[C@H](O)[C@H]5NC(C)=O)[C@H](O)[C@H]4O)[C@H](O)[C@H]3NC(C)=O)[C@H](O)[C@H]2O)cc1`, for the setting “tested form: NH4 salt”, the IC50 was determined as 0.53 mg/L.

Consider `COc1ccc(O[C@@H]2O[C@@H](C(=O)O)[C@@H](O[C@H]3O[C@H](COS(=O)(=O)O)[C@@H](O[C@@H]4O[C@@H](C(=O)O)[C@@H](O[C@H]5O[C@H](COS(=O)(=O)O)[C@@H](O[C@@H]6O[C@@H](C(=O)O)[C@@H](O[C@H]7O[C@H](COS(=O)(=O)O)[C@@H](O[C@@H]8O[C@@H](C(=O)O)[C@@H](O[C@H]9O[C@H](COS(=O)(=O)O)[C@@H](O[C@@H]%10O[C@@H](C(=O)O)[C@@H](O[C@H]%11O[C@H](COS(=O)(=O)O)[C@@H](O)[C@H](O)[C@H]%11NC(C)=O)[C@H](O)[C@H]%10OS(=O)(=O)O)[C@H](O)[C@H]9NC(C)=O)[C@H](O)[C@H]8OS(=O)(=O)O)[C@H](O)[C@H]7NC(C)=O)[C@H](O)[C@H]6OS(=O)(=O)O)[C@H](O)[C@H]5NC(C)=O)[C@H](O)[C@H]4OS(=O)(=O)O)[C@H](O)[C@H]3NC(C)=O)[C@H](O)[C@H]2OS(=O)(=O)O)cc1`, for which the IC50 (tested form: NH4 salt) stood at 0.007 mg/L.
